Data as given in paper PMC9300463 (Nature, 2022).

Sequences of proteins named here, by UniProt entry; tags and fusion partners are left off. A change or cut given only in a name is not applied to a line headed by its entry.
UniProt P0DO84: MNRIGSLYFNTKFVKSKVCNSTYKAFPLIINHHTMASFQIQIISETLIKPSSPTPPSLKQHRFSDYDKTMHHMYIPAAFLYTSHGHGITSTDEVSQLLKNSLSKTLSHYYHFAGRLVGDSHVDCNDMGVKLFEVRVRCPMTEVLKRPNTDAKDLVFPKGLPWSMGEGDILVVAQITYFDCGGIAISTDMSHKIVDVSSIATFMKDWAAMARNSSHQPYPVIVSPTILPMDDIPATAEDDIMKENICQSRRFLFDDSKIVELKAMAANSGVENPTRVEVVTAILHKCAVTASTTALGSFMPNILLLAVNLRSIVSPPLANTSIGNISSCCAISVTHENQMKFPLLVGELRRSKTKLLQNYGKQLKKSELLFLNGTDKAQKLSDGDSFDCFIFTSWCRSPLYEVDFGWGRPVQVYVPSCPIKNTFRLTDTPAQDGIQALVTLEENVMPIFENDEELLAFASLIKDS

Molecular target: T1, SnvAT (Strychnos nux-vomica, UniProt P0DO84)
T1 construct: gene AT
Details: acyl donor, endogenous or from AAE13 plus malonate; with Wieland-Gumlich aldehyde

CC(C)(COP(=O)(O)OP(=O)(O)OC[C@H]1O[C@@H](n2cnc3c(N)ncnc32)[C@H](O)[C@@H]1OP(=O)(O)O)[C@@H](O)C(=O)NCCC(=O)NCCSC(=O)CC(=O)O [malonyl-CoA]
transient expression in N. benthamiana, LC-MS: SnvAT is a BAHD acyltransferase with predominantly malonyltransferase activity
